The text below walks through data of patent US9540647B2, “Methods and compositions for the treatment of cancer” (University of South Alabama, priority 2010, dated 2017).

The subject of assay [1] is RAW264.7 cells. Kind of assay: Osteoclast resorption activity (OAAS plates). Particulars: conditioned medium from MDA-MB-435 cells treated with cyclopamine.
The subject of assay [2] is OPN promoter. Put plainly: OPN promoter luciferase reporter assay in metastatic melanoma cell lines. The class given is cell-based, human. In general terms: Reporter assays use an easily measured gene product as a stand-in for the process of interest.
Assay [3] concerns RAW264.7 cells. Put plainly: Osteoclast differentiation (TRAP assay). Particulars: DM supplemented with cyclopamine.
Assay [4] deals with OPN promoter. Kind of assay: OPN promoter reporter activity in MC3T3-E1 pre-osteoblastic cells. The assay is classed as cell-based, murine.
The test system of assay [5] is OPN promoter. Kind of assay: OPN promoter reporter activity in hFOB cells. The class given is cell-based, human.

Regarding `CC1=C2C[C@H]3[C@@H](CC=C4C[C@@H](O)CC[C@@]43C)[C@@H]2CC[C@]12O[C@@H]1C[C@H](C)CN[C@H]1[C@H]2C` [cyclopamine], the “ability of tumor cells to activate resorptive function” value in the assay on RAW264.7 cells [1] was “significantly reduced”. Further, the OPN promoter activity result in the assay on OPN promoter [2] (MCC012A cell line, cyclopamine 10 μM) was “noticeable, but not significant (p=0.06) decrease”; in the assay with OPN promoter [2] (MCC012A cell line, cyclopamine 20 μM), “significant decrease (p=0.0006)”; with OPN promoter [2] (MCC012F cells, cyclopamine 10 μM and 20 μM) it was “significant (p=0.042 and 0.002, respectively) decrease”; in the assay with OPN promoter [4] it was “inhibits Hedgehog-activated OPN”; in the assay with OPN promoter [5], “inhibits OPN”. Also, the viability of preosteoclasts result with RAW264.7 cells [3] was “without impacting their viability”.
